Assay results reported in patent US8729097B2, “Quinoline compounds as inhibitors of angiogenesis, human methionine aminopeptidase, and SIRT1, and methods of treating disorders” (The Johns Hopkins University, priority 2008, dated 2014).

What was measured:
[1] = test system: acetylation of p53 (K382), α-tubulin and histone-H3; assay: Acetylation status of sirtuin substrates in HUVEC (Western blot)
HUVEC [2] = assay: Endothelial cell tube formation assay; conditions: Matrigel; EX527 1 μM, TNP470 10 nM
HUVEC [3] = assay: Senescence associated-β-galactosidase (SA-β-gal) staining in HUVEC; conditions: 5 days, single compound or drug combination

## NC(=O)C1CCCc2c1[nH]c1ccc(Cl)cc21 (stereo not shown)
[1]
  acetylation of p53-K382, single agent: slightly induced acetylation of p53-K382
[1]; with TSA (200 nM), 24 h, nitroxoline 20 μM
  acetylation of tubulin and histone-H3 in the presence of TSA: did not increase acetylation of tubulin or histone-H3
HUVEC [2]
  HUVEC tube formation: inhibited the tube formation
HUVEC [3]
  premature senescence in HUVEC: induced premature senescence
